Test system: rat uterine decidualization
Assay: Rat decidualization assay
Conditions: decrease in EC50 progesterone induced decidual response

CC1(C)OC(=O)Nc2ccc(-c3ccc(F)c(C#N)c3)cc21
Decidualization IC50: 6.96 mg/kg
